## Measured affinities in a library of Ab-95 light chain variants

Target: peptide PDVDLGDISGINAS, taken from heptad repeat 2 (HR2) of SARS-CoV-2 spike.

The variants keep the heavy chain, the linker and the frameworks of Ab-95 (scFv order VH, the linker GGGGSGGGGSGGGGS, VL).
VH: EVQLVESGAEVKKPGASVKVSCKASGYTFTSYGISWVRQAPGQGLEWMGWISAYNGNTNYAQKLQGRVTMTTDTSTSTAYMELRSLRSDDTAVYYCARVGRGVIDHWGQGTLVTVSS
VL: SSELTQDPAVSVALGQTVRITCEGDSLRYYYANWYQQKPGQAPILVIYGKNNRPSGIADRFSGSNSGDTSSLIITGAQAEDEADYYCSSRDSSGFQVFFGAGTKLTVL

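The parent was found by panning a naive human phage display library on the peptide. Variants in AAYL52 differ from the parent at up to three CDR positions; double and triple changes were sampled at random. Affinity was read by AlphaSeq, a pooled yeast mating assay with surface-displayed partners. Mating (16 h, 30 °C) was followed by selection of diploids and sequencing of their barcodes. Scores were corrected for input abundance and mapped to Kd with protein pairs of known affinity run in the same pool. The assay was run in three technical replicates.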

Variants are written as CDR1, CDR2 and CDR3 of the light chain (limits as in the source). Parent: EGDSLRYYYAN, GKNNRPS, SSRDSSGFQVF.
This list gathers variants with a substitution at N51 (VL, numbered from residue 1).
Numbers give log10(Kd / nM), so 0 is 1 nM and 3 is 1 µM. Smaller is tighter.
The mean shown is taken over the replicates in which the pair was detected.
Where no diploid with the target was found in that replicate, the entry reads "ND": below detection, most likely a poor binder, though not proof of it.
The list is sorted by this average, lowest first, undetected variants last.
Empty control strains, which show no peptide, gave a signal in 28% of pairings with library AAYL52; the median was 3.91 and 95% of these signals were weaker than 2.90. No background was subtracted.

CDR-L1	CDR-L2	CDR-L3	log10 Kd, replicates	log10 Kd (nM), mean
EGDSLRYGYAN	GKTNRPS	SSRDSCGFQVF	1.17 0.90 0.32	0.80
KGDSLRYYYAN	GKDMRPS	SSRDSSGFQVF	1.72 1.74 1.30	1.59
HGDSLRYYYAN	GKMNRPS	SSRDSSGFNVF	3.02 2.45 2.55	2.67
EGDSLRRYYAN	GKDNRPS	SSRDWSGFQVF	3.40 ND 2.53	2.97
EGDSLRYYYAN	GKTNRPS	SSRDSSGFQVF	2.95 3.22 3.19	3.12
EGRSLRYYYAN	GKHNRPS	SSRDSLGFQVF	3.46 2.97 3.06	3.16
EGDQLRYYYAN	GNQNRPS	SSRDSSGFQVF	2.72 3.29 3.49	3.17
EGDSLRYYYAN	GKWNRES	SSRDSSGFQVF	ND ND 3.19	3.19
EGDSLRRYYAN	GKCNRPS	SSRDSEGFQVF	3.40 3.00 ND	3.20
EGDDLRYYYAN	GKKNRPS	SSRDSAGFQVF	3.02 3.40 ND	3.21
EGDSLRYYYAN	GKQNRPP	SSWDSSGFQVF	3.31 ND ND	3.31
EGDSLEYYYAN	GKDNRPS	SSRDSSGFQQF	2.54 3.64 3.88	3.35
EGDSWRYYYHN	GKGNRPS	SSRDSSGFQVF	3.42 ND ND	3.42
EGDSLRYLYAN	GKCWRPS	SSRDSSGFQVF	ND 3.47 ND	3.47
EGASLRYYYAN	GKLNRPS	SSRDSSGFQVF	4.44 3.41 2.79	3.55
EGDSLRYYYAN	GKVNRPV	SSRDSSGFQIF	3.77 ND 3.33	3.55
EGDSLRFYYAN	GKGNRPS	SSRWSSGFQVF	3.71 3.53 3.62	3.62
EGDSLRAYYAN	GKVNRPS	SSRDYSGFQVF	3.18 3.67 4.13	3.66
EGDSLRYYYAD	NKMNRPS	SSRDSSGFQVF	ND 3.76 ND	3.76
EGDSDRYYRAN	GKRNRPS	SSRDSSGFQVF	3.77 ND ND	3.77
EGDSLLYYYAN	GKENRPS	SSVDSSGFQVF	ND 3.82 ND	3.82
CPDSLRYYYAN	GKVNRPS	SSRDSSGFQVF	ND ND 3.91	3.91
EGLSLRQYYAN	GKPNRPS	SSRDSSGFQVF	3.93 ND ND	3.93
EGDSLRYYYAN	GKYNRPS	SSRDSSGFQVA	4.10 4.15 3.81	4.02
EGDSLRYYYAN	GKENRPS	SSRDSSPFQTF	ND 4.12 ND	4.12
EGDSLRYYYAN	GKFVRPS	SSRDSSQFQVF	ND 4.20 ND	4.20
EFDSLRYYYAN	GKYNRPS	SSRDSIGFQVF	3.89 4.58 ND	4.23
EGDSKRYYYAN	GKTNRPS	SPRDSSGFQVF	4.46 4.73 3.67	4.29
ECDSLRYYYAN	GKIWRPS	SSRDSSGFQVF	4.78 3.85 ND	4.31
EDDSLRYYYAN	GKPNRPS	SSRDSSGFQVM	5.09 3.66 ND	4.38
GGISLRYYYAN	GKENRPS	SSRDSSGFQVF	4.22 ND 4.69	4.45
EGDDLRYYYAN	GKFNRPS	SSRDSSGFQVF	4.47 4.62 ND	4.54
EGFSLRYYYAN	GKMNRPS	SSRDSSGFQVF	ND 4.57 ND	4.57
EGDSLRYYLAN	GKCNKPS	SSRDSSGFQVF	4.55 5.17 3.99	4.57
NGDSERYYYAN	GKCNRPS	SSRDSSGFQVF	3.78 5.80 ND	4.79
EGDSLRYYYAN	GKWNRPS	SSYDSSGFHVF	ND 5.73 4.25	4.99
EGDSLRYMYAN	GKWNRPS	SSSDSSGFQVF	5.57 5.64 ND	5.61
EGDSLRYYYKN	GKGNRPS	SSRDSSGFQPF	ND ND ND	ND
EGDFLRYYYAN	GKMNRPS	SNRDSSGFQVF	ND ND ND	ND
ETDSLRYYYAN	GKLNRPS	SSRQSSGFQVF	ND ND ND	ND
EGDSLRYYYAN	GKINRPS	SSDDSSGFQAF	ND ND ND	ND
EGDSLRYYYAN	QKGNRPS	SSRDSSGFQVF	ND ND ND	ND
EGDSLRYYYHN	GKYNRPS	SSRDSSGEQVF	ND ND ND	ND
EGDSLRYYSAG	GKWNRPS	SSRDSSGFQVF	ND ND ND	ND
EGDSLRYYIAN	YKPNRPS	SSRDSSGFQVF	ND ND ND	ND

A selection of 7 entries from above:

{"CDR-L1": "EGDSLRYYYAN", "CDR-L2": "GKFVRPS", "CDR-L3": "SSRDSSQFQVF", "log10 Kd, replicates": "ND 4.20 ND", "log10 Kd (nM), mean": "4.20"}
{"CDR-L1": "EGDSLRYYLAN", "CDR-L2": "GKCNKPS", "CDR-L3": "SSRDSSGFQVF", "log10 Kd, replicates": "4.55 5.17 3.99", "log10 Kd (nM), mean": "4.57"}
{"CDR-L1": "EGDSLRFYYAN", "CDR-L2": "GKGNRPS", "CDR-L3": "SSRWSSGFQVF", "log10 Kd, replicates": "3.71 3.53 3.62", "log10 Kd (nM), mean": "3.62"}
{"CDR-L1": "EGDSLRYYYAN", "CDR-L2": "QKGNRPS", "CDR-L3": "SSRDSSGFQVF", "log10 Kd, replicates": "ND ND ND", "log10 Kd (nM), mean": "ND"}
{"CDR-L1": "EGDSLRYYYAD", "CDR-L2": "NKMNRPS", "CDR-L3": "SSRDSSGFQVF", "log10 Kd, replicates": "ND 3.76 ND", "log10 Kd (nM), mean": "3.76"}
{"CDR-L1": "EGDSLRYYYKN", "CDR-L2": "GKGNRPS", "CDR-L3": "SSRDSSGFQPF", "log10 Kd, replicates": "ND ND ND", "log10 Kd (nM), mean": "ND"}
{"CDR-L1": "EGDDLRYYYAN", "CDR-L2": "GKFNRPS", "CDR-L3": "SSRDSSGFQVF", "log10 Kd, replicates": "4.47 4.62 ND", "log10 Kd (nM), mean": "4.54"}

In this assay the parent's reference entry averaged 2.31; its copy inside this library read 2.25.

Reference: Engelhart et al. 2022, doi:10.1038/s41597-022-01779-4. File: FLAb, binding data.